# From patent US10730874B2 (Shire Human Genetic Therapies, Inc., priority 2018, dated 2020)
# By UniProt entry, the sequences of proteins in these tests, tags left out. Residues count along the entry.
# UniProt P03952, 20-390 partner: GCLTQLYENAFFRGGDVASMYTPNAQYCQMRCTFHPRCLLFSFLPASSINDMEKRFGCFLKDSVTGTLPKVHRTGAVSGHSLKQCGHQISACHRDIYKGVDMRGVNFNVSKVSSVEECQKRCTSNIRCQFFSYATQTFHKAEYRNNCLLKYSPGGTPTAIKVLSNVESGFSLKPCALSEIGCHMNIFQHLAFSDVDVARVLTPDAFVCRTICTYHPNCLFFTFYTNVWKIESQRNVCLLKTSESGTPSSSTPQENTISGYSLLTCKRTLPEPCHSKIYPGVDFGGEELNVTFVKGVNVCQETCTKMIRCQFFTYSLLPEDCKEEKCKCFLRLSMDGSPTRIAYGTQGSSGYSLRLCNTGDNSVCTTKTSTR
# UniProt P03952, 391-638: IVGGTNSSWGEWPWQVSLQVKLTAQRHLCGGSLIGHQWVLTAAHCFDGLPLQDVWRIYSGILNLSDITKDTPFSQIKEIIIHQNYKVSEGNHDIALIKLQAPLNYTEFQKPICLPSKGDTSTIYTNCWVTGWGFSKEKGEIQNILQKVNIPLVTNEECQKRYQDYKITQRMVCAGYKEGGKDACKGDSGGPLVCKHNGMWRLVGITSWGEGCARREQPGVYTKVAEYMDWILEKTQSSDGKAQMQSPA
# Molecular target: human activated kallikrein enzyme (plasma kallikrein) (Homo sapiens (Human), UniProt P03952)
# Experiment: Inhibition of human activated plasma kallikrein, fluorogenic peptide substrate assay, 500 pM enzyme format
# Assay type: biochemical
# Conditions: 500 pM activated kallikrein enzyme, 300 uM Pro-Phe-Arg-7-amido-4-methylcoumarin substrate, 30 min preincubation, 10 min at RT; read-out: Primary Dose Response Assay: Average EC50
# Description: Example compounds were evaluated for inhibition of the human activated kallikrein enzyme in two formats of an assay employing a fluorogenic peptide substrate. In one assay format, the concentrations of reagents were as follows: 20 mM Tris pH 7.5, 1 mM EDTA, 150 mM sodium chloride, 0.1% PEG-400, 0.1% Triton X-100, 500 pM activated kallikrein enzyme, 300 uM Pro-Phe-Arg-7-amido-4-methylcoumarin substrate. Prior to reaction initiation with substrate, enzyme and inhibitors were preincubated for 30 min at RT. After initiation with substrate, reactions were incubated for 10 min at RT and fluorescence emission at 460 nm from 380 nm excitation measured with a microplate reader. In another assay format, the concentrations of reagents were as follows: 20 mM Tris pH 7.5, 1 mM EDTA, 150 mM sodium chloride, 0.1% PEG-400, 0.1% Triton X-100, 5 pM activated kallikrein enzyme, 300 uM Pro-Phe-Arg-7-amido-4-methylcoumarin substrate. Prior to reaction initiation with substrate, enzyme and inhibitors were preincubated for 30 min at RT. After initiation with substrate, reactions were incubated for 18 h at RT and fluorescence emission at 460 nm from 380 nm excitation measured with a microplate reader.
row,Compound,EC50
1,"O=C(NCc1ncn2ccc(Br)c(F)c12)c1cnn(Cc2cn3nc(C4CC4)ccc3n2)c1 [Example I-108, N-((7-bromo-8-fluoroimidazo[1,5-a]pyridin-1-yl)methyl)-1-((6-cyclopropylimidazo[1,2-b]pyridazin-2-yl)methyl)-1H-pyrazole-4-carboxamide]",< 1 nM
2,"O=C(NCc1ncn2ccc(Br)c(F)c12)c1cnn(Cc2cn3c(F)c(C4CC4)ccc3n2)c1 [Example I-164, N-((7-bromo-8-fluoroimidazo[1,5-a]pyridin-1-yl)methyl)-1-((6-cyclopropyl-5-fluoroimidazo[1,2-a]pyridin-2-yl)methyl)-1H-pyrazole-4-carboxamide]",< 1 nM
3,"Cc1c(Cl)ccc2nc(Cn3cc(C(=O)NCc4ncn5ccc(Cl)c(F)c45)nn3)cn12 [Example I-172, 1-((6-chloro-5-methylimidazo[1,2-a]pyridin-2-yl)methyl)-N-((7-chloro-8-fluoroimidazo[1,5-a]pyridin-1-yl)methyl)-1H-1,2,3-triazole-4-carboxamide]",< 1 nM

# More lines, now with the values ahead:
row,EC50,Compound
1,< 1 nM,"Cc1c(C2CC2)ccc2nc(Cn3cc(C(=O)NCc4ncn5ccc(Br)cc45)cn3)cn12 [Example I-14, N-((7-bromoimidazo[1,5-a]pyridin-1-yl)methyl)-1-((6-cyclopropyl-5-methylimidazo[1,2-a]pyridin-2-yl)methyl)-1H-pyrazole-4-carboxamide]"
2,< 1 nM,"O=C(NCc1ncn2ccc(Br)cc12)c1cnn(Cc2cn3c(Cl)c(C4CC4)ccc3n2)c1 [Example I-57, N-((7-bromoimidazo[1,5-a]pyridin-1-yl)methyl)-1-((5-chloro-6-cyclopropylimidazo[1,2-a]pyridin-2-yl)methyl)-1H-pyrazole-4-carboxamide]"
3,< 1 nM,"O=C(NCc1ncn2ccc(Br)c(F)c12)c1cnn(Cc2cn3cc(C4CC4)ccc3n2)c1 [Example I-97, N-((7-bromo-8-fluoroimidazo[1,5-a]pyridin-1-yl)methyl)-1-((6-cyclopropylimidazo[1,2-a]pyridin-2-yl)methyl)-1H-pyrazole-4-carboxamide]"
